Assay results as given in patent publication US6194143A, “Substrates for human cytomegalovirus protease” (Boehringer Ingelheim (Canada) Ltd., priority 1998, dated 2001).

How the values were obtained:
[1] = Stability of 10 mM DMSO stock solutions at 4° C.; format: physicochemical; details: 10 mM in DMSO, stored at 4° C.
Description: Stock solutions (10 mM) in DMSO of the compounds prepared in examples 2, 3, 4, 5 and 6 were stored at 4° C. […] Aliquoted samples of HCMV protease 50 μM (1.4 mg/ml) were kept at -80° C. in storing buffer without detectable loss of activity over an extended period of more than a year. The calculated molecular mass of wild-type HCMV protease was 28042 Da. The concentration of enzyme on which the calculations of the turnover number, kcat, and the specificity constant, kcat /Km, were derived was expressed in terms of total monomer concentration.

[2] = aliquots at 4° C.; with 0.1% w/v casein, 20 μM cold substrate 13, 5 mM dithiothreitol

Substance: d-Biotin-Arg-Gly-Tbg-Tbg-Asn (Me) 2 -Ala-Ser-Ser-Arg-Leu-Ala-Tyr-NH2 [Substrate 5]
- stability of compound in stock solution [1]: stable for several weeks

Substance: d-Biotin-Arg-Gly-Tbg-Tbg-Asn(Me)2 -Ala-Ser-Ser-Arg-Leu-Ala-Tyr(^125,)-NH2 [Substrate 13a]
- time solution was stable [2]: 3-4 weeks

Substance: d-Biotin-Arg-Gly-Val-Val-Asn-Ala-Ser-Ser-Arg-Leu-Ala-Tyr-NH2 [Substrate 4]
- stability of compound in stock solution [1]: stable for several weeks
